According to PubChem BioAssay (Tox21):
Where “and” joins values, the source holds several entries; their conditions need not be identical. Equal entries are not always repeated. The list shows a part of the results, in another mix than the full data. Inconclusive results are not listed. Calls of active or inactive are those of the source. Calls follow the shape of the dose curve; as a rule, active = well fitted cell-killing curve with a large enough effect in the repeat runs; inconclusive = weak or mixed curves; inactive = flat fitted curve, though single readings scatter.

Assay: qHTS RealTime-Glo MT Cell Viability Assay in HepG2 cells - 16 hour (AID 1224885); also: nearly all actives have a fitted effect of over 50% in size
Settings: RealTime-Glo luminescence; series mostly up to 76.8 µM; activity change, negative = cytotoxic: at the top concentration
Excerpt: U.S. Tox21 Program National Center for Advancing Translational Sciences [NCATS] NIH Chemical Genomics Center [NCGC] U.S. Environmental Protection Agency [EPA] National Institutes of Environmental Health Sciences [NIEHS] National Toxicology Program [NTP] U.S. Food and Drug Administration [FDA] Tox21 Assay Overview: Measure of cell viability is critical in the cell-base assay. Analysis of cell viability is necessary for the characterization of cell responses to cytotoxic drugs and environmental stress. A RealTime-Glo MT Cell Viability Assay to monitor cell viability in real time of continues cell culture during 40 hours of compound treatment was used to screen Tox21 10K library compounds in HepG2 cells. The RealTime-Glo MT Cell Viability Assay is a nonlytic, homogeneous, bioluminescent method to measure cell viability in real time using a simple, plate-based method. The assay involves adding NanoLuc luciferase and a cell-permeant prosubstrate to cells in culture. Viable cells reduce the proprietary prosubstrate to generate a substrate for NanoLuc luciferase. This substrate diffuses from cells into the surrounding culture medium, where it is rapidly used by the NanoLuc Enzyme to produce a luminescent signal. The signal correlates with the number of viable cells, making the assay well suited for cytotoxicity studies.
Tox21 Assay Protocol Summary: The mixture of HepG2 cell suspension and reagents were dispensed at 600cells/6 ul/well in 1536-well tissue culture treated black solid bottom plates using a Multidrop dispenser. After the assay plates were incubated at a 37 C/5% CO2 incubator for 5 hours, 23 nL of compounds dissolved in DMSO, positive and negative controls was transferred to the assay plate by a pintool work station. The plates were incubated at 37 C for 40 hours. The luminescence intensity were measured at 0h, 8h, 16h, 24h, 32h and 40h time points using ViewLux plate reader during compound treatment.
% is scaled to controls: 0 for no effect and ±100 for the full control effect; potency is read from the fitted curve at half-maximal effect.

SMILES	activity change, negative = cytotoxic	Potency
CC(C)CCCCCCCOP(OCCCCCCCC(C)C)Oc1ccccc1	inactive: 1.3%	–
CN(C(=O)Cc1ccccc1)[C@H]1CC[C@@]2(CCCO2)C[C@@H]1N1CCCC1	inactive: 0.99% [at 35.3 µM]	–
O=P(Cl)(Cl)c1ccccc1	inactive: 0.0534%	–
Cc1cc([N+](=O)[O-])c(O)c([N+](=O)[O-])c1	inactive: -20%	–
CCNC(C)Cc1ccc2c(c1)OCO2 (stereo unspecified)	inactive: -4.58%	–
O=C(Cl)OCCOC(=O)Cl	inactive: -3.99%	–
CCC(C)(OOC(C)(C)C)OOC(C)(C)C	inactive: -5.59% [at 15.8 µM]	–
CN(N=O)C(=N)N[N+](=O)[O-]	inactive: -9.59%	–
CCCCOP(OCCCC)OCCCC	inactive: -0.569%	–
O=[p+]1oc2ccccc2c2ccccc21 (stereo unspecified)	inactive: 0.26%	–
O=[N+]([O-])c1ccc(S(=O)(=O)O)c([N+](=O)[O-])c1	inactive: 2.4%	–
CCOC(=O)Cl	inactive: 0.257%	–
CN(C(=O)Cc1ccc(Cl)c(Cl)c1)[C@H]1CC[C@@]2(CCCO2)C[C@@H]1N1CCCC1	inactive: 0.0173% [at 35.3 µM]	–
O=C(Cl)Oc1ccccc1	inactive: 1.17%	–
COC(=O)Cl	inactive: -0.25%	–
NC(=O)Nc1ccc([As](=O)(O)O)cc1	–	inactive
CN(C(=O)Cc1cccc2occc12)[C@H]1CC[C@@]2(CCCO2)C[C@@H]1N1CCCC1	inactive: 2.93%	–
COP(=S)(Cl)OC	inactive: -7.01%	–
CCOP(=S)(CC)Sc1ccccc1 (stereo unspecified)	inactive: -1.92%	–
CC(C)OP(=S)(OC(C)C)SCCNS(=O)(=O)c1ccccc1	inactive: -20.5%	–
O=C1C2CC=CCC2C(=O)N1SC(Cl)(Cl)C(Cl)Cl (stereo unspecified)	–	active: 44 µM and active: 6.92 µM
O=P(Cl)(Oc1ccccc1)Oc1ccccc1	inactive: 1.58%	–
ClP(Cl)c1ccccc1	inactive: -0.419%	–
CCCCC(CC)CO[P+](=O)OCC(CC)CCCC (stereo unspecified)	inactive: 1.67%	–
CCCCO[P+](=O)OCCCC	–	inactive
O=[P+](Oc1ccccc1)Oc1ccccc1	inactive: 1.4%	–
